One assay addresses JAK3 tyrosine kinase (Homo sapiens, UniProt P52333). Kind of assay: Test 1: inhibitory activity to JAK3 tyrosine kinase (ELISA). In kind it is biochemical. The conditions noted are these: read-out: inhibitory activity to JAK3 tyrosine kinase (IC50), 25 μM ATP in substrate solution, 30° C. for 1 hour, n=2.
The target of a further assay is JAK2 tyrosine kinase (Homo sapiens, UniProt O60674). Kind of assay: Test 1: inhibitory activity to JAK2 tyrosine kinase (ELISA). The conditions noted are these: read-out: inhibitory activity to JAK2 tyrosine kinase (IC50), 25 μM ATP in substrate solution, 30° C. for 1 hour, n=2.

Sequences of proteins named here, by UniProt entry; tags and fusion partners are left off.
UniProt P52333, whole entry: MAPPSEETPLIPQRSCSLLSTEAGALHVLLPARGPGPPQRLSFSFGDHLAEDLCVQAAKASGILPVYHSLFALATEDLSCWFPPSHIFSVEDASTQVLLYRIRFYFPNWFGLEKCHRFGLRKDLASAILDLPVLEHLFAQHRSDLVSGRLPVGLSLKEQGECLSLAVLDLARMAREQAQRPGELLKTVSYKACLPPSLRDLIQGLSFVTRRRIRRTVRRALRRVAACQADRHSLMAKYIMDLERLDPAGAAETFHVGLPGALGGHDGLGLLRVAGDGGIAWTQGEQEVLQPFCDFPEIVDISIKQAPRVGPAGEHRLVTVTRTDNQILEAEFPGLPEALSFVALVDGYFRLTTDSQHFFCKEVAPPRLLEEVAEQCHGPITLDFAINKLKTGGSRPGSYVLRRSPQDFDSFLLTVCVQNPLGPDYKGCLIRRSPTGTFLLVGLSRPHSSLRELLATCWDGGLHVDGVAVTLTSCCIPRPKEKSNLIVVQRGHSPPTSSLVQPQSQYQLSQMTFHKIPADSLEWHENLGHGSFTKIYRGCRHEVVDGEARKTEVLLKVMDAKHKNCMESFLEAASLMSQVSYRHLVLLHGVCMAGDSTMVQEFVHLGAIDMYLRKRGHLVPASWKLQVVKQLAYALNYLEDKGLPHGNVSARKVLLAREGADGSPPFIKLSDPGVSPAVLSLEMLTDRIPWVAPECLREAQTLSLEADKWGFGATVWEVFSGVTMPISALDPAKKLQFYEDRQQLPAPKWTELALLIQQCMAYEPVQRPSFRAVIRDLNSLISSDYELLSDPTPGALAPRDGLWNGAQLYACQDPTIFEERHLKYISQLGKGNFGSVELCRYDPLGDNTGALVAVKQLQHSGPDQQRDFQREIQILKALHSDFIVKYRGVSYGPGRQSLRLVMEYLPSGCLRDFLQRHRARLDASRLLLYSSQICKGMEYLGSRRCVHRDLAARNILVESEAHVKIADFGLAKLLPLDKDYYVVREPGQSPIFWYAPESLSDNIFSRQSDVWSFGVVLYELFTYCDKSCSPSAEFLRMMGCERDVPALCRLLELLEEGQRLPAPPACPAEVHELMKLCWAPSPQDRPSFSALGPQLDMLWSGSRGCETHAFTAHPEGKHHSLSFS
UniProt O60674, whole entry: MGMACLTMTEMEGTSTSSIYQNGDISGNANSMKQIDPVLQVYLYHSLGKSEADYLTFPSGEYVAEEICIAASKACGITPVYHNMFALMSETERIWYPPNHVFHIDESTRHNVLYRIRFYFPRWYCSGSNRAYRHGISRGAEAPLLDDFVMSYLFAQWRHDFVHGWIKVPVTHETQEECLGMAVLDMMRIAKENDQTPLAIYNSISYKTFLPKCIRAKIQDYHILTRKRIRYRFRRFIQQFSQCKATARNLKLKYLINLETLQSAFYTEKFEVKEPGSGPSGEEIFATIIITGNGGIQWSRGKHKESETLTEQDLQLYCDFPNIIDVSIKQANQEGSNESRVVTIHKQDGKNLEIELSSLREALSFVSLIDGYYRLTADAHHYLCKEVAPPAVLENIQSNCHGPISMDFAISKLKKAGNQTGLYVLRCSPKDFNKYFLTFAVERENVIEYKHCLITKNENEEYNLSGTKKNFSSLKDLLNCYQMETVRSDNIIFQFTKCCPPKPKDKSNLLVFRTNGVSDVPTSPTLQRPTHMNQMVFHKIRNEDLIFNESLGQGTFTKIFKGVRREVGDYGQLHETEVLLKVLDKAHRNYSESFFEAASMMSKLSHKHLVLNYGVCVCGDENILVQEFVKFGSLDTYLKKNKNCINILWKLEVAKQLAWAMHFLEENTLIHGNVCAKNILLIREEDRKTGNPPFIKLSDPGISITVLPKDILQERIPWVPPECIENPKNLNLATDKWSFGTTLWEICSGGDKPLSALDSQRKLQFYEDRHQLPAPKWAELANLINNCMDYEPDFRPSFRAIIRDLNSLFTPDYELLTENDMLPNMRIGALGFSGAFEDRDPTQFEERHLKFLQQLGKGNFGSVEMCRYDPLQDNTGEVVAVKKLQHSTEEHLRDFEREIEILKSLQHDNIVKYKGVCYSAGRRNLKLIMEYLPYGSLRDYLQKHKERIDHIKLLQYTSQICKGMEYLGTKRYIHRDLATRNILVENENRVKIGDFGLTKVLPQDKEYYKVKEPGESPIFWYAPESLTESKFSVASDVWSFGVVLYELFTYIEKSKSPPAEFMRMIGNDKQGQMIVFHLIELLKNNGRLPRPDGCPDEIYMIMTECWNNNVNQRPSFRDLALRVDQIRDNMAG

Consider `C[C@H](Nc1nc(Nc2cnccn2)cc(-c2cnccc2C#N)n1)c1ccc(F)cc1`, for which the concentration for half-maximal inhibition (IC50) (as a rule, the concentration that gives 50% inhibition) at JAK3 tyrosine kinase turned out to be 1300 nM; on JAK2 tyrosine kinase, 19 nM.
For `C[C@H](Nc1nc(Nc2cnccn2)cc(-c2cnccc2C(N)=O)n1)c1ccc(F)cc1` the same measures were 610 nM and 37 nM.
For `Cc1cnc(Nc2cc(Nc3cnccn3)nc(N[C@@H](C)c3ccc(F)cc3)n2)s1` the same measures were 51 nM and 3.1 nM.
